Results from PMC6431625 (Frontiers in Endocrinology, 2019).

Amino acid sequences for entries named in this document (tags omitted). A change or cut given only in a name is not applied to a line headed by its entry.
UniProt P43088: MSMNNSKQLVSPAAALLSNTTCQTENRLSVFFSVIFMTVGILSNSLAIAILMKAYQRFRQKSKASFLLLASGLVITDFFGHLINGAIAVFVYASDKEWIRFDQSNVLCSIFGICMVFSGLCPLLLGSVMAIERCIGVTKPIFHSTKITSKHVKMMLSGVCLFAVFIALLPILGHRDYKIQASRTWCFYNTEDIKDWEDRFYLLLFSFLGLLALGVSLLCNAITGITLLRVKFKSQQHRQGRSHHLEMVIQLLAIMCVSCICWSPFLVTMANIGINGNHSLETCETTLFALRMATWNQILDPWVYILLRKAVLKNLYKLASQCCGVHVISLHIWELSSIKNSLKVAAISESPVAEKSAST

Key:
AT1R-Venus/FP-WT dimer [1] = molecular target: T1, AT1R-Venus/FP-WT dimer (Homo sapiens, UniProt P30556+P43088); conditions: for EC50 value for β-arrestin 2-Rluc recruitment, range in words: HEK 293; for Effect of endocytosis inhibitor pretreatment on Ang II-induced β-arrestin 1/2-RlucII recruitment: pretreatment 30 min, sucrose 450 mM, phenylarsine oxide 2.5 μM, concanavalin A 0.4 g/L, Ang II 1 μM; for Allosteric effect of AT1R antagonist pretreatment on PGF2α-induced β-arrestin 2-RlucII recruitment / Allosteric effect of AT1R antagonist pretreatment on cloprostenol-induced β-arrestin 2-RlucII recruitment: pretreatment 1 μM for 30 min; for Allosteric effect of AT1R antagonist pretreatment on cloprostenol-induced β-arrestin 2-RlucII recruitment: cloprostenol 1 μM
AT1R-Venus/FP-WT dimer [2] = molecular target: T1, AT1R-Venus/FP-WT dimer; assay: cell-based
[3] = PGF2α 1 μM, AT1R-Venus/FP-WT dimer

Row | Molecule | EC50 value for β-arrestin 2-Rluc recruitment, range in words (AT1R-Venus/FP-WT dimer [1]; AT1R-Venus/FP-WT dimer) | Allosteric effect of AT1R antagonist pretreatment on PGF2α-induced β-arrestin 2-RlucII recruitment (AT1R-Venus/FP-WT dimer [1]; PGF2α 1 μM) | Allosteric effect of AT1R antagonist pretreatment on cloprostenol-induced β-arrestin 2-RlucII recruitment (AT1R-Venus/FP-WT dimer [1]) | other results
1 | O=C(O)CCC/C=C\C[C@@H]1[C@@H](/C=C/[C@@H](O)COc2cccc(C(F)(F)F)c2)[C@H](O)C[C@@H]1O (racemic) [Fluprostenol] | low nanomolar to the picomolar range |  |  | 
2 | CCCCC[C@H](O)/C=C/[C@@H]1[C@@H](C/C=C\CCCC(=O)O)[C@@H](O)C[C@H]1O [PGF2α, prostaglandin F2α] |  |  |  | t1/2 of β-arrestin 2-RlucII recruitment (AT1R-Venus/FP-WT dimer [1]; [3]): 17 min; t1/2 of βarr1-RlucII recruitment (AT1R-Venus/FP-WT dimer [1]; [3]): 20 min
3 | OC[C@H]1O[C@@](CO)(O[C@H]2O[C@H](CO)[C@@H](O)[C@H](O)[C@H]2O)[C@@H](O)[C@@H]1O [Sucrose, sucrose] |  |  |  | Effect of endocytosis inhibitor pretreatment on Ang II-induced β-arrestin 1/2-RlucII recruitment (AT1R-Venus/FP-WT dimer [1]): potentiated
4 | CC(C)OC(=O)CCC/C=C\C[C@@H]1[C@@H](/C=C/C(F)(F)COc2ccccc2)[C@H](O)C[C@@H]1O [Tafluprost] | low nanomolar to the picomolar range |  |  | 
5 | CCOc1nc2cccc(C(=O)O)c2n1Cc1ccc(-c2ccccc2-c2nc(=O)o[nH]2)cc1 [azilsartan] |  | allosterically inhibited | no allosteric effects | 
6 | CCCc1nc2c(C)cc(-c3nc4ccccc4n3C)cc2n1Cc1ccc(-c2ccccc2C(=O)O)cc1 [telmisartan] |  | allosterically inhibited | allosterically inhibited | 
7 | concanavalin A |  |  |  | Effect of endocytosis inhibitor pretreatment on Ang II-induced β-arrestin 1/2-RlucII recruitment (AT1R-Venus/FP-WT dimer [1]): potentiated

Now from value to molecule, other results behind:

Row | EC50 value for β-arrestin 2-Rluc recruitment, range in words (AT1R-Venus/FP-WT dimer [1]; AT1R-Venus/FP-WT dimer) | Allosteric effect of AT1R antagonist pretreatment on PGF2α-induced β-arrestin 2-RlucII recruitment (AT1R-Venus/FP-WT dimer [1]; PGF2α 1 μM) | Allosteric effect of AT1R antagonist pretreatment on cloprostenol-induced β-arrestin 2-RlucII recruitment (AT1R-Venus/FP-WT dimer [1]) | Molecule | other results
8 | micromolar range |  |  | O=C(O)CCC/C=C\C[C@@H]1[C@@H](/C=C/[C@H](O)C2Cc3ccccc3C2)[C@@H](F)C[C@@H]1O [AL-8810] | 
9 | low nanomolar to the picomolar range |  |  | CC(C)OC(=O)CCC/C=C\C[C@@H]1[C@@H](CC[C@@H](O)CCc2ccccc2)[C@H](O)C[C@@H]1O [Latanoprost] | EC50 (AT1R-Venus/FP-WT dimer [2]): 6.1 nM
10 |  | no allosteric effects | no allosteric effects | CCOc1nc2cccc(C(=O)O)c2n1Cc1ccc(-c2ccccc2-c2nnn[nH]2)cc1 [candersartan] | 
11 |  | no allosteric effects | no allosteric effects | CCCCC1=NC2(CCCC2)C(=O)N1Cc1ccc(-c2ccccc2-c2nnn[nH]2)cc1 [irbesartan] | 
12 |  | no allosteric effects | no allosteric effects | CCCCc1nc(Cl)c(CO)n1Cc1ccc(-c2ccccc2-c2nn[nH]n2)cc1 [losartan] | 
